{"source": "patent US20070065520A1", "about": "“Mri contrast medium composition for oral administration” (priority 2003, published 2007)", "key": {"[1]": {"experiment": "not given", "remark": "listed apart in the source"}, "[2]": {"experiment": "not given", "remark": "listed apart in the source"}}, "note": "Like-named read-outs stand apart in the source and are kept apart here.", "data": [{"substance": "manganese chloride [MnCl2]", "values": [{"measurement": "Liver Mean Mn", "setting": "Ex. 3 Group 2: 100 μmol/kg MnCl2 only, oral gavage", "result": 114.0, "unit": "nmol/g"}, {"measurement": "Liver Mean Mn", "setting": "Ex. 3 Group 3: 50 μmol/kg MnCl2 + 100 μmol/kg alanine, no vitamin D3, Mn:Ala 1:2, oral", "result": 95.3, "unit": "nmol/g"}, {"measurement": "Liver Mean Mn", "setting": "Ex. 3 Group 4: 100 μmol/kg MnCl2 + 200 μmol/kg alanine, no vitamin D3, Mn:Ala 1:2, oral", "result": 110.3, "unit": "nmol/g"}, {"measurement": "Liver Mean Mn", "setting": "Ex. 3 Group 5: 100 μmol/kg MnCl2 + 50 μmol/kg alanine, no vitamin D3, Mn:Ala 1:0.5, oral", "result": 128.8, "unit": "nmol/g"}, {"measurement": "Liver Mean Mn", "setting": "Ex. 3 Group 6: 100 μmol/kg MnCl2 + 25 μmol/kg alanine, no vitamin D3, Mn:Ala 1:0.25, oral", "result": 115.9, "unit": "nmol/g"}, {"measurement": "Liver Mean Mn", "setting": "Ex. 3 Group 7: 100 μmol/kg MnCl2 + 50 μmol/kg alanine + 10 IU/kg vitamin D3, Mn:Ala 1:0.5, oral, 1 animal excluded since no Mn was taken up", "result": 133.8, "unit": "nmol/g"}, {"measurement": "Liver Mean Mn", "setting": "Ex. 3 Group 8: 100 μmol/kg MnCl2 + 25 μmol/kg alanine + 10 IU/kg vitamin D3, Mn:Ala 1:0.25, oral", "result": 117.8, "unit": "nmol/g"}, {"measurement": "Liver Mean Mn", "setting": "[1]; Ex. 2 Group 2: 100 μmol/kg MnCl2 only, oral gavage, liver 3 h after dose", "result": 63.4, "unit": "nmol/g"}, {"measurement": "Liver Mean Mn", "setting": "[1]; Ex. 2 Group 3: 100 μmol/kg MnCl2 + 150 μmol/kg alanine + 20 IU/kg vitamin D3, Mn:Ala 1:1.5, oral, 3 h", "result": 69.9, "unit": "nmol/g"}, {"measurement": "Liver Mean Mn", "setting": "[1]; Ex. 2 Group 4: 100 μmol/kg MnCl2 + 150 μmol/kg alanine + 10 IU/kg vitamin D3, Mn:Ala 1:1.5, oral, 3 h", "result": 72.7, "unit": "nmol/g"}, {"measurement": "Liver Mean Mn", "setting": "[1]; Ex. 2 Group 5: 100 μmol/kg MnCl2 + 150 μmol/kg alanine + 5 IU/kg vitamin D3, Mn:Ala 1:1.5, oral, 3 h", "result": 68.4, "unit": "nmol/g"}, {"measurement": "Liver Mean Mn", "setting": "[1]; Ex. 2 Group 6: 100 μmol/kg MnCl2 + 75 μmol/kg alanine + 20 IU/kg vitamin D3, Mn:Ala 1:0.75, oral, 3 h", "result": 69.2, "unit": "nmol/g"}, {"measurement": "Liver Mean Mn", "setting": "[1]; Ex. 2 Group 7: 100 μmol/kg MnCl2 + 75 μmol/kg alanine + 10 IU/kg vitamin D3, Mn:Ala 1:0.75, oral, 3 h", "result": 73.8, "unit": "nmol/g"}, {"measurement": "Liver Mean Mn", "setting": "[1]; Ex. 2 Group 8: 100 μmol/kg MnCl2 + 75 μmol/kg alanine + 5 IU/kg vitamin D3, Mn:Ala 1:0.75, oral, 3 h", "result": 72.0, "unit": "nmol/g"}, {"measurement": "Liver Mean Mn", "setting": "[1]; Ex. 2 Group 9: 100 μmol/kg MnCl2 + 37.5 μmol/kg alanine + 20 IU/kg vitamin D3, Mn:Ala 1:0.375, oral, 3 h", "result": 72.6, "unit": "nmol/g"}, {"measurement": "Liver Mean Mn", "setting": "[1]; Ex. 2 Group 10: 100 μmol/kg MnCl2 + 37.5 μmol/kg alanine + 10 IU/kg vitamin D3, Mn:Ala 1:0.375, oral, 3 h", "result": 79.8, "unit": "nmol/g"}, {"measurement": "Liver Mean Mn", "setting": "[1]; Ex. 2 Group 11: 100 μmol/kg MnCl2 + 37.5 μmol/kg alanine + 5 IU/kg vitamin D3, Mn:Ala 1:0.375, oral, 3 h", "result": 73.1, "unit": "nmol/g"}, {"measurement": "Liver Mean Mn", "setting": "[2]; Ex. 1 Group 2: 100 μmol/kg MnCl2 only, oral gavage, liver 3 h after dose", "result": 44.4, "unit": "nmol/g"}, {"measurement": "Liver Mean Mn", "setting": "[2]; Ex. 1 Group 3: 100 μmol/kg MnCl2 + 450 μmol/kg alanine + 60 IU/kg vitamin D3, Mn:Ala 1:4.5, oral, 3 h", "result": 61.1, "unit": "nmol/g"}, {"measurement": "Liver Mean Mn", "setting": "[2]; Ex. 1 Group 4: 100 μmol/kg MnCl2 + 300 μmol/kg alanine + 60 IU/kg vitamin D3, Mn:Ala 1:3, oral, 3 h", "result": 61.8, "unit": "nmol/g"}, {"measurement": "Liver Mean Mn", "setting": "[2]; Ex. 1 Group 5: 100 μmol/kg MnCl2 + 150 μmol/kg alanine + 60 IU/kg vitamin D3, Mn:Ala 1:1.5, oral, 3 h", "result": 76.1, "unit": "nmol/g"}, {"measurement": "Liver Mean Mn", "setting": "[2]; Ex. 1 Group 6: 100 μmol/kg MnCl2 + 450 μmol/kg alanine + 40 IU/kg vitamin D3, Mn:Ala 1:4.5, oral, 3 h", "result": 66.4, "unit": "nmol/g"}, {"measurement": "Liver Mean Mn", "setting": "[2]; Ex. 1 Group 7: 100 μmol/kg MnCl2 + 300 μmol/kg alanine + 40 IU/kg vitamin D3, Mn:Ala 1:3, oral, 3 h", "result": 73.8, "unit": "nmol/g"}, {"measurement": "Liver Mean Mn", "setting": "[2]; Ex. 1 Group 8: 100 μmol/kg MnCl2 + 150 μmol/kg alanine + 40 IU/kg vitamin D3, Mn:Ala 1:1.5, oral, 3 h", "result": 73.7, "unit": "nmol/g"}, {"measurement": "Liver Mean Mn", "setting": "[2]; Ex. 1 Group 9: 100 μmol/kg MnCl2 + 450 μmol/kg alanine + 20 IU/kg vitamin D3, Mn:Ala 1:4.5, oral, 3 h", "result": 68.4, "unit": "nmol/g"}, {"measurement": "Liver Mean Mn", "setting": "[2]; Ex. 1 Group 10: 100 μmol/kg MnCl2 + 300 μmol/kg alanine + 20 IU/kg vitamin D3, Mn:Ala 1:3, oral, 3 h", "result": 69.8, "unit": "nmol/g"}, {"measurement": "Liver Mean Mn", "setting": "[2]; Ex. 1 Group 11: 100 μmol/kg MnCl2 + 150 μmol/kg alanine + 20 IU/kg vitamin D3, Mn:Ala 1:1.5, oral, 3 h", "result": 72.6, "unit": "nmol/g"}]}]}
